Experimental data published in patent EP1310250A1, “Use of the compound 2-methoxyphenyl-1-methyl-5P-methylbenzoyl-pyrrol-2-acetamido acetate for the production of an antiinflammatory drug with prevention of gastric hypersecretion and renal impairment” (MEDOSAN Ricerca S.r.l., priority 1997, dated 1999).

Test system: rat gastric mucosa
Details: male, Wistar, in vivo, po, 4 days
Method: The animals entered in the trial, randomized and divided into groups of 6 rats each, were fasted for 16 h prior to treatment, with access to water ad libitum. They were re-fed 1 h after drug administration. The compound 2-methoxyphenyl-1-methyl-5p-methylbenzoyl-pyrrol-2-acetamido acetate and the other reference NSAIDs, suspended in 1% carboxymethylcellulose (CMC) solution, were orally administered by gastric gavage in a volume of 6ml/kg for four consecutive days. Controls received the vehicle in the same way as the treated animals. 4 h after the last administration the animals were killed by ether overdose; the stomachs were removed, rinsed with 10 ml of saline and immersed in 1% formalin. They were later opened along the greater curvature and the mucosa examined for lesions.
The seriousness of the lesion was quantified according to a scale graduated from 1 to 3 according to the size of the lesions: 1= ulcer < 1mm; 2= ulcer 1-2mm; 3= ulcer > 2mm. […] The gastric lesions were evaluated by two independent investigators under blind conditions according to Main & Whittle method (BJ Pharmac 1975:53; p. 217-224).
Since the average daily dose in man (for the anti-inflammatory activity) is 600 mg, the comparative efficacious dose in the rat is in the ratio of 12:1. […] To evaluate the "ratio to rat dosage" the ID50 has been determined using the carrageenin-induced oedema as inflammatory test. […]

CS(=O)(=O)Nc1ccc([N+](=O)[O-])cc1Oc1ccccc1 [Nimesulide, nimesulide]
Gastrolesive index: 46.2
